Measured affinities in a library of Ab-14 heavy chain variants

Antigen: PDVDLGDISGINAS, a 14-residue peptide of the SARS-CoV-2 spike HR2 region.

Parent: Ab-14, a human scFv built as VH, a (GGGGS)3 linker, VL. Only the CDRs of the heavy chain vary.
VH: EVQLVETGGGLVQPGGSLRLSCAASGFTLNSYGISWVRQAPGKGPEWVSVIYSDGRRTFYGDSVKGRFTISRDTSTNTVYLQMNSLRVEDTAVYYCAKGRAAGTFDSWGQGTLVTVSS
VL: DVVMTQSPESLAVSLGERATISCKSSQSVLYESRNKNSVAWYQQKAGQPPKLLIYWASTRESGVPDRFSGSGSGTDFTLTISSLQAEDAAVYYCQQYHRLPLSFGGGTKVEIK

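Phage display of a naive human antibody library on the peptide gave the parent. Designed CDR sequences, proposed from the first random library and measured here. Their group label is 14H_En_Gen (En: ensemble of fine-tuned language models; Gen: genetic algorithm). AlphaSeq pools MATa yeast showing the antibodies with MATalpha yeast showing the peptide. After mating in shaken culture at 30 °C for 16 h, diploids were selected and their barcode pairs sequenced. Each replicate has its own calibration line, from reference interactions of the BCL2 family. Mating was done six times.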

Each variant is given by its three heavy chain CDRs, as the data file delimits them; those of the parent are GFTLNSYGIS, VIYSDGRRTFYGDSVK, GRAAGTFDS. The read-out is the apparent dissociation constant on a log10 scale (nM): the lower, the stronger. Replicates are averaged; those with no signal do not enter the mean. "ND" marks a missing value. The strain was present, yet no cells mated with the target were sequenced in that replicate, which points to weak or no binding. Empty control strains, which show no peptide, gave a signal in 1% of pairings with all heavy chain designs; the median was 2.08 and 95% of these signals were weaker than 0.84. No background was subtracted. Also given: how often the same scFv was detected with the empty control strains, with their mean in brackets.

| CDR-H1 | CDR-H2 | CDR-H3 | log10 Kd, replicates | mean, log10 nM | empty controls |
|---|---|---|---|---|---|
| GFDLNEYGIS | VIYADGVRTAYTDSVK | GETAGTFDV | -0.26 / 0.02 / -0.40 / -0.95 / -0.41 / -0.41 | -0.40 | 1/18 (1.88) |
| GFDLNEYGIS | VIYADGRRTAYADNVK | GETAGTFDI | -1.45 / -0.92 / -0.74 / -1.39 / -0.97 / -1.11 | -1.10 | 0/18 |
| GFDLNEYGIS | VIYADGQRTAYTDSVK | GNVAGTFDL | -2.00 / -0.66 / -1.92 / -1.82 / -2.01 / -2.10 | -1.75 | 0/18 |
| GFDLNEYGIS | VIYADGQRTAYTDSVK | GNNAGTFDI | ND / ND / 0.07 / ND / ND / ND | 0.07 | 0/18 |
| GFDLNEYGIS | VIYADGMRTAYSDSVK | GEVAGTFDE | -0.23 / -0.42 / -0.62 / -0.63 / -0.58 / -0.21 | -0.45 | 1/18 (1.59) |
| GFDLNEYGIS | VIYADGVRSAYADSVK | GNQAGTFDV | -0.62 / -0.55 / -0.65 / -1.17 / -0.64 / -0.39 | -0.67 | 1/18 (1.40) |
| GFDLNEYGIS | VIYADGMRTAYSDSVK | GNNAGTFDI | -0.05 / -0.05 / -0.42 / -0.58 / -0.30 / -0.14 | -0.26 | 0/18 |
| GFDLNEYGIS | VIYADGKRTAYADNVK | GNVAGTFDI | -0.21 / -0.05 / 0.08 / -0.35 / -0.11 / -0.07 | -0.12 | 0/18 |
| GFDLNEYGIS | VIYADGMRTAYIDSVK | GNQAGTFDV | 0.20 / -0.16 / -0.08 / 0.23 / -0.60 / -0.63 | -0.17 | 0/18 |
| GFDLNEYGIS | VIYADGMRTYYADDVK | GNNAGTFDL | -0.15 / -0.32 / -0.27 / -0.39 / -0.53 / -0.37 | -0.34 | 0/18 |
| GFDLNEYGIS | VIYADGSRKAYADSVK | GNVAGTFDQ | -0.88 / -1.01 / -1.03 / -1.43 / -1.07 / -0.75 | -1.03 | 0/18 |
| GFDLNEYGIS | VIYADGMRTAYADNVK | GENAGTFDL | 0.54 / -0.60 / -0.19 / -0.82 / 0.06 / -0.05 | -0.17 | 0/18 |
| GFDLDEYGIS | VIYADGRRTAYADSVK | GNTAGTFDI | -0.48 / -0.65 / -0.54 / -0.69 / -0.39 / -0.52 | -0.55 | 0/18 |
| GFDLDEYGIS | VIYADGMRTAYADNVK | GENAGTFDT | 0.16 / -0.16 / -0.50 / 0.02 / -0.65 / -0.21 | -0.22 | 0/18 |
| GFDLDEYGIS | VIYADGMRTAYSDSVK | GNEAGTFDL | -0.43 / -0.89 / -0.61 / -1.15 / -0.52 / -1.08 | -0.78 | 0/18 |
| GFDLNEYGIS | VIYADGKRTAYVDSVK | GEVAGTFDI | -0.27 / -0.58 / -0.61 / -0.66 / -0.41 / -0.36 | -0.48 | 1/18 (1.09) |
| GFDLNEYGIS | VIYADGQRTYYADSVK | GNVAGTFDV | ND / ND / ND / ND / ND / ND | ND | 0/18 |
| GFDLNEYGIS | VIYADGMRTVYTDSVK | GNVAGTFDI | -0.32 / 0.57 / 1.01 / 0.01 / -0.45 / 0.02 | 0.14 | 0/18 |
| GFDLDEYGIS | VIYADGMRTAYADSVK | GTNAGTFDT | -0.72 / -0.80 / -0.82 / -0.77 / -0.95 / -0.47 | -0.76 | 0/18 |
| GFDLNEYGIS | VIYADGKRTYYADSVK | GQNAGTFDI | -0.68 / -0.80 / -1.10 / -1.00 / -1.10 / -0.68 | -0.89 | 0/18 |
| GFDLEEYGIS | VIYADGVRTAYADSVK | GNVAGTFDL | -0.05 / -0.37 / -0.60 / -0.19 / -0.37 / -0.30 | -0.31 | 0/18 |
| GFDLNEYGIS | VIYADGVRTAYSDDVK | GNVAGTFDI | -0.95 / -0.87 / -1.05 / -0.61 / -1.25 / -1.77 | -1.08 | 0/18 |
| GFDLNEYGIS | VIYADGMRTYYADSVK | GEVAGTFDQ | 0.65 / 0.97 / 1.19 / 0.74 / 0.94 / 0.25 | 0.79 | 0/18 |
| GFDLNEYGIS | VIYADGQRTAYTDSVK | GNTAGTFDV | -0.05 / -0.27 / -0.47 / -0.43 / -0.41 / -0.31 | -0.32 | 0/18 |
| GFDLNEYGIS | VIYADGMRTSYADSVK | GETAGTFDL | -0.40 / 0.02 / -0.34 / -0.58 / -0.44 / -0.18 | -0.32 | 0/18 |
| GFDLNEYGIS | VIYADGMRKVYADSVK | GNQAGTFDV | 0.19 / 0.09 / -0.35 / 0.00 / -0.58 / -0.09 | -0.12 | 0/18 |
| GFDLDEYGIS | VIYADGMRTAYSDSVK | GNLAGTFDV | -0.43 / -0.46 / -0.58 / -0.38 / -0.67 / -0.04 | -0.43 | 0/18 |
| GFDLNEYGIS | VIYADGKRTAYADNVK | GEVAGTFDM | -0.38 / 0.00 / -0.52 / -0.73 / -0.07 / 0.33 | -0.23 | 0/18 |
| GFDLNEYGIS | VIYADGMRTFYADSVK | GNNAGTFDV | -0.03 / -0.25 / -0.25 / -0.42 / -0.27 / -0.05 | -0.21 | 0/18 |
| GFDLNEYGIS | VIYADGRRTAYSDDVK | GNQAGTFDV | 1.09 / 1.32 / 1.42 / 0.63 / 1.26 / 1.48 | 1.20 | 1/18 (2.23) |
| GFDLDEYGIS | VIYADGQRTAYADSVK | GENAGTFDM | -0.28 / -0.33 / -0.31 / -0.39 / -0.24 / -0.41 | -0.33 | 1/18 (3.02) |
| GFDLNEYGIS | VIYADGMRTAYADSVK | GEVAGTFDN | -0.08 / 0.07 / -0.30 / -0.35 / -0.27 / -0.09 | -0.17 | 0/18 |
| GFDLDEYGIS | VIYADGMRTAYADDVK | GENAGTFDM | ND / 0.26 / ND / 0.67 / 0.93 / 2.11 | 0.99 | 0/18 |
| GFDLDEYGIS | VIYADGQRTAYTDSVK | GQNAGTFDV | 0.75 / 0.38 / 1.01 / 0.83 / 0.90 / 1.55 | 0.90 | 0/18 |
| GFDLDEYGIS | VIYADGMRTYYADSVK | GENAGTFDL | 0.63 / 0.29 / 0.58 / -0.06 / -0.07 / 0.25 | 0.27 | 0/18 |
| GFDLNEYGIS | VIYADGSRTAYADSVK | GNVAGTFDQ | -0.32 / -0.43 / -0.61 / -0.57 / -0.40 / -0.40 | -0.45 | 1/18 (2.45) |
| GFDLNEYGIS | VIYADGMRTAYIDSVK | GSNAGTFDV | -0.39 / -0.81 / -0.86 / -0.65 / -0.86 / -0.40 | -0.66 | 1/18 (2.61) |
| GFDLNEYGIS | VIYADGKRTAYIDSVK | GNVAGTFDQ | -0.37 / -0.72 / -0.57 / -0.92 / -0.93 / -0.48 | -0.66 | 0/18 |

Top 3 of the variants detected in all replicates, tightest first:

CDR-H1	CDR-H2	CDR-H3	log10 Kd, replicates	mean, log10 nM	empty controls
GFDLNEYGIS	VIYADGQRTAYTDSVK	GNVAGTFDL	-2.00 / -0.66 / -1.92 / -1.82 / -2.01 / -2.10	-1.75	0/18
GFDLNEYGIS	VIYADGRRTAYADNVK	GETAGTFDI	-1.45 / -0.92 / -0.74 / -1.39 / -0.97 / -1.11	-1.10	0/18
GFDLNEYGIS	VIYADGVRTAYSDDVK	GNVAGTFDI	-0.95 / -0.87 / -1.05 / -0.61 / -1.25 / -1.77	-1.08	0/18

The authors averaged sequences with at least three values out of six and counted those with two or fewer as poor binders. Of ten entries with the parent sequence, four were seen in most replicates (averages 0.34 to 2.37), three in one and three in none, so single entries are noisy. A sequence measured in both rounds can read differently, since the two assays cover different ranges.

Reference: Li et al. 2023, doi:10.1038/s41467-023-39022-2. File: FLAb, binding data.